# Values joined by “and” are separate entries in the source; they are usually repeats but may differ in a detail not shown here. Equal values may be shown once. This is a selection; strong and weak results do not stand in their true shares. Inconclusive results are not listed. Some compounds were tested as several samples or in several runs, with calls that do not always agree. Active and inactive are the calls of the source. The call rests on the fitted dose curve; in most records, active means well fitted activation curve with a large enough effect in the signal ratio in the repeat runs (not every such curve was filed as active); inconclusive means weak or mixed curves; inactive means flat fitted curve, though single readings scatter; the % refers to the signal ratio.
# Assay: qHTS assay to identify small molecule agonists of H2AX (AID 1224845)
# Conditions: CHO-K1 phospho-H2AX Ser139 HTRF, 3 h; series mostly up to 154 µM; activation (H2AX phosphorylation): at the top concentration
# Source text: National Center for Advancing Translational Sciences [NCATS]
# NIH Chemical Genomics Center [NCGC]
# U.S. Environmental Protection Agency [EPA]
# National Institutes of Environmental Health Sciences [NIEHS]
# National Toxicology Program [NTP]
# U.S. Food and Drug Administration [FDA]
# HTRF phospho-H2AX (Ser139) assay (Cisbio Bioassays, US) enables the quantitative detection of the histone variant H2AX when phosphorylated on serine 139. When double-stranded DNA breaks, either by ionizing radiation or endogenous physiological processes, H2AX becomes phosphorylated at Ser139. This phospho-Ser139 serves as a sensitive biomarker for the detection of such breaks, localizing the site of DNA repair. So, HTRF phospho-H2AX Ser139 is a pertinent assay to study genome stability, the cell cycle, DNA repair, and it serves as a biomarker for cancer, and to understand aging. Wild type CHO-K1 cells were used to identify the inducers of Phospho-H2AX Ser 139 from the Tox21 10K compound collections.
# Tox21 Assay Protocol Summary:
# The CHO-K1 cells suspended in culture medium containing 10% FBS were dispensed at 1000 cells/ 3 ul/well in 1536-well white wall/solid bottom plates (Greiner Bio-One North America, NC) using a Multidrop Combi (Thermo Fisher Scientific Inc., Waltham, MA). After the assay plates were incubated at 37C overnight, 23 nl of compounds at 15 concentrations (from 5-48 columns) or positive control (from 1 to 4 columns) were transferred to the assay plates using a Pintool station (Wako, San Diego, CA) into each well resulting in a final DMSO concentration of 0.76%. After 3hr incubation at 37C, 1 uL/well Supplemented Lysis buffer (diluted 100 fold blocking reagent in lysis buffer) (HTRF Phospho-H2A.X (S139) Assay kit from Cisbio US Inc., Bedford, MA) was added using a Flying Reagent Dispenser (FRD) (Aurora Discovery, CA). After 10sec spin at 1000 rpm in a plate centrifuge, the assay plates were incubated at room temperature for 30 min. Then followed by the addition of 1 uL/well detection buffer (containing a mixture of two antibodies, one labeled with cryptate, Anti pH2AX (S139)-K and another labeled with d2, Anti H2AX-d2) using FRD. After incubation at room temperature for 24 hr, the time resolved fluorescence at excitation 320 nm and emissions at 665 nm and 620 nm was measured using an Envision plate reader (PerkinElmer, Waltham, MA).
# On the % scale 0 is the no-effect control and ±100 the full control effect; potency means the concentration at half of the fitted maximal effect.
SMILES,activation (H2AX phosphorylation),Potency
CCOP(=S)(CC)Sc1ccccc1 (configuration not stated),inactive: 3.98%,–
O=C(Cl)Oc1ccccc1,inactive: 1.02%,–
CN(C(=O)Cc1cccc2occc12)[C@H]1CC[C@@]2(CCCO2)C[C@@H]1N1CCCC1,inactive: -2.3%,–
CCCCCCCCCCCCCC[P+](CCCCCC)(CCCCCC)CCCCCC,–,active: 20 µM
CCC(C)(OOC(C)(C)C)OOC(C)(C)C,inactive: -2.61% [at 31.6 µM],–
O=P(Cl)(Cl)c1ccccc1,inactive: -3.95%,–
O=[P+](Oc1ccccc1)Oc1ccccc1,inactive: 0.477%,–
CN(N=O)C(=N)N[N+](=O)[O-],–,active: 17.8 µM
CC(C)CCCCCCCOP(OCCCCCCCC(C)C)Oc1ccccc1,inactive: -0.936%,–
O=P(Cl)(Oc1ccccc1)Oc1ccccc1,inactive: -1.94%,–
O=[N+]([O-])c1ccc(S(=O)(=O)O)c([N+](=O)[O-])c1,inactive: -0.001%,–
CCCCC(CC)CO[P+](=O)OCC(CC)CCCC (configuration not stated),inactive: -3.47%,–
CN(C(=O)Cc1ccccc1)[C@H]1CC[C@@]2(CCCO2)C[C@@H]1N1CCCC1,inactive: -2.21% [at 70.9 µM],–
O=[p+]1oc2ccccc2c2ccccc21 (configuration not stated),inactive: 0.145%,–
CCNC(C)Cc1ccc2c(c1)OCO2 (configuration not stated),inactive: -2.5%,–
COP(=S)(Cl)OC,inactive: -1.52%,–
CCCCOP(OCCCC)OCCCC,inactive: -4.33%,–
CCCCO[P+](=O)OCCCC,–,inactive
CC(C)OP(=S)(OC(C)C)SCCNS(=O)(=O)c1ccccc1,inactive: 0.234%,–
O=C(Cl)OCCOC(=O)Cl,inactive: 0.993%,–
Cc1cc([N+](=O)[O-])cc([N+](=O)[O-])c1O,inactive: 0.332%,–
ClP(Cl)c1ccccc1,inactive: -0.189%,–
COC(=O)Cl,inactive: -1.06%,–
Cc1cc([N+](=O)[O-])c(O)c([N+](=O)[O-])c1,inactive: 1.25%,–
CN(C(=O)Cc1ccc(Cl)c(Cl)c1)[C@H]1CC[C@@]2(CCCO2)C[C@@H]1N1CCCC1,inactive: -3.52% [at 70.9 µM],–
CCOC(=O)Cl,inactive: -0.582%,–
O=C1C2CC=CCC2C(=O)N1SC(Cl)(Cl)C(Cl)Cl (configuration not stated),–,active: 6.4 µM and active: 3.18 µM

# — PubChem BioAssay (Tox21)
